According to published antibiotic growth screens (doi:10.1038/s41589-023-01349-8):
The list shows a part of the results.

System: A. baumannii ATCC 17978
Experiment: relative growth (fraction of control); higher = less inhibition
Conditions: 50 µM

SMILES | relative growth
ClC(Cl)=C(c1ccc(Cl)cc1)c1ccc(Cl)cc1 | 1.04
O=[N+]([O-])C(Br)(CO)CO | 0.149
C=CCC1(C(C)CCC)C(=O)N=C([S-])NC1=O.[Na+] (stereo unspecified) | 1.14
Clc1nc(N2CCNCC2)c2[nH]cnc2n1 | 1.02
COc1cccc(C2(N)CCCC2)c1 | 0.958
Cc1ccc2[nH]cc(C[C@@H](C)N)c2c1 | 1
C[C@H]1CN(C)[C@@H](C)C[C@@H]1n1[nH]c(=O)cc1N | 1.08
NC(Cc1ccccc1)Cc1ccccc1 | 0.923
COc1cccc([C@]2(O)CCCC[C@H]2CN(C)C)c1.Cl | 1.03
CC(=O)N1CCCC[C@]12CCNC2 | 1.22
C1COC2(CN1)CNC2 | 1.01
CNc1ccccc1C(=O)O | 1.09
CC(C)[N+](C)(CCC(C(N)=O)(c1ccccc1)c1ccccc1)C(C)C.[I-] | 0.923
C[C@]12C=CC(=O)C=C1CCC1C2CC[C@]2(C)C(=O)CCC12 (stereo partly specified) | 1.17
CN1CCN(C(=O)O[C@H]2c3nccnc3C(=O)N2c2ccc(Cl)cn2)CC1 | 1.23
O[C@@H]1[C@@H]2C[C@H]3[C@H]1N[C@@H]1C[C@@H]2[C@@H]3[C@H]1O | 1.01
C=C(C)[C@H]1CN[C@H](C(=O)O)[C@@H]1CC(=O)O | 1.01
c1ccc2sc(C3(N4CCCC4)CCCCC3)cc2c1 | 0.991
CC(=O)O[C@H]1C[C@H](O[C@H]2[C@@H](O)C[C@H](O[C@H]3[C@@H](O)C[C@H](O[C@H]4CC[C@@]5(C)C(CCC6C5C[C@@H](O)[C@]5(C)[C@@H](C7=CC(=O)OC7)CC[C@]65O)C4)O[C@@H]3C)O[C@@H]2C)O[C@H](C)[C@H]1O[C@@H]1O[C@H](CO)[C@@H](O)[C@H](O)[C@H]1O (stereo partly specified) | 0.966
CN[C@@H]1[C@@H]2[C@H]3CCN2C[C@H]1O3 | 0.849
NC(=O)c1cc([N+](=O)[O-])cc([N+](=O)[O-])c1 | 0.883
COc1ccc2c(c1O)-c1c(OC)c(OC)cc3c1[C@H](C2)N(C)CC3 | 0.99

SMILES | relative growth
C[C@]12C(=O)OC(=O)[C@]1(C)[C@H]1CC[C@H]2O1 | 1.08
CC[C@@H](CO)NC(=O)[C@@H]1C=C2c3cccc4c3c(cn4C)C[C@H]2N(C)C1.O=C(O)/C=C\C(=O)O | 1.23
CCOC(=O)CC(SP(=S)(OC)OC)C(=O)OCC (stereo unspecified) | 1.1
NC[C@H](CC(=O)O)c1ccc(Cl)cc1 | 1.04
C=CCSSCC=C | 1.06
NC[C@@H]1CCCN2CCCC[C@H]12 | 0.957
NCc1cccnc1 | 0.909
NSC(=S)N1CCCC1 | 0.887
Br.CN1C2C[C@H](OC(=O)[C@H](CO)c3ccccc3)C[C@H]1[C@H]1OC21 (stereo partly specified) | 1.07
C[C@]12CCC3C(CC[C@]4(O)C[C@@H](O)CC[C@]34C=O)[C@@]1(O)CCC2C1=CC(=O)OC1 (stereo partly specified) | 0.961
C#C[C@]1(O)C=CC2[C@@H]3CCC4=CC(=O)CC[C@@H]4C3CC[C@@]21CC (stereo partly specified) | 1.21
CN1CCc2cc([C@H](CN)N(C)C)ccc21 | 0.991
CC(=O)O[C@@H]1C[C@@]2(C)[C@H](c3ccoc3)C[C@H]3O[C@]32[C@]2(C)C(=O)C(O)=C3C(C)(C)C(=O)C=C[C@]3(C)[C@@H]12 | 1.1
Cc1ccc2c(CCN)c(C)n(C)c2c1 | 0.997
O=c1[nH]c2ccccc2n1CCCN1CCC(n2c(=O)[nH]c3cc(Cl)ccc32)CC1 | 1.04
CCCCOC(=O)C1=CC(=O)CC(C)(C)O1 | 0.862
CC(C)(O)[C@@H]1[C@H]2OC(=O)[C@@H]1[C@]1(O)C[C@H]3O[C@]34C(=O)O[C@H]2[C@]14C | 1.07
O=C([O-])Cc1ccccc1.[Na+] | 1.08
C=CC[C@]1(O)CCC2C3CCC4=CC(=O)CCC4=C3C=C[C@@]21C (stereo partly specified) | 0.902
CN(C)C(=O)C(CCN1CCC(O)(c2ccc(Cl)cc2)CC1)(c1ccccc1)c1ccccc1.Cl | 0.891
CC(C)c1ccc2c(c1)[C@H](O)[C@H](N)CCO2 | 0.962
CC[C@H]1CN2CCC1C[C@@H]2[C@@H](O)c1ccnc2ccc(OC)cc12 (stereo partly specified) | 0.879

SMILES | relative growth
CC1=C2CC3[C@@H](CC=C4C[C@@H](O)CC[C@@]43C)[C@@H]2CC[C@]12O[C@@H]1C[C@H](C)CN[C@H]1[C@H]2C (stereo partly specified) | 0.94
O=C1C=CC(=O)c2c(O)cccc21 | 0.97
CC[C@@H]1/C=C/C=C/C[C@H](C)[C@@H](O)[C@](C)(O)C(=O)[C@H](C)[C@@H](O)[C@H](C)C(=O)[C@H](C)[C@@H](O)[C@H](C)/C=C/C(=O)O[C@H]2[C@@H](C)[C@@H](CC1)O[C@@]1(CC[C@@H](C)[C@@H](C[C@H](C)O)O1)[C@@H]2C | 0.874
CC[C@H](c1cccc(O)c1)[C@@H](C)CN(C)C.Cl | 1.17
O=C1C[C@H](c2ccccc2)[C@@H]2CNCCN12 | 0.942
Cl.NCCc1cc(O)c(O)cc1O | 0.967
C[N+](C)(C)CCCCCCCCCC[N+](C)(C)C.[Br-].[Br-] | 0.995
COC(=O)[C@H]1O[C@@H]2C[C@H]3O[C@@H](n4cnc5c(N)ncnc54)[C@H](OC)[C@H]3O[C@@]2(O)[C@@H](O)[C@@H]1O | 1.07
C=C[C@H]1CN2CC[C@H]1C[C@H]2[C@H](O)c1ccnc2ccccc12 | 0.853
O=C1COC2(CNC2)CN1 | 1.05
COC(=O)C1=CO[C@@H](C)C2CN3CC[C@]4(C(=O)Nc5ccccc54)C3C[C@H]12 (stereo partly specified) | 0.998
O=C(O)c1cc(Cl)ccc1Cl | 0.917
C=C[C@H]1CN2CC[C@H]1C[C@@H]2[C@H](O)c1ccnc2ccccc12 | 0.986
O=C1CC(=O)N(Cc2ccccc2)C(=O)N1 | 1.02
CS(=O)(=O)c1ccc(C(=O)C2C(=O)CCCC2=O)c([N+](=O)[O-])c1 | 0.992
Br.CC(Cc1ccc(O)cc1)NCC(O)c1cc(O)cc(O)c1 (stereo unspecified) | 0.912
OC[C@@H]1CCCN2CCCC[C@H]12 | 0.987
CN1C(=O)[C@]23CC4=CC=C[C@H](O)[C@H]4N2C(=O)[C@@]1(CO)SS3 | 0.125
CCNS(=O)(=O)C(F)(F)C(F)(F)C(F)(F)C(F)(F)C(F)(F)C(F)(F)C(F)(F)C(F)(F)F | 0.961
C=CCN=C=S | 0.83
C1CCc2nnnn2CC1 | 0.947
CC(=O)[O][Hg][c]1ccccc1 | 0.174

SMILES | relative growth
c1nc(N2CCN3CCC[C@H]3C2)c2[nH]cnc2n1 | 0.944
C[C@H]1O[C@H](n2cnc3c(N)ncnc32)C[C@H]1O | 1.24
COc1ccc(CN2CCNCC2)c(OC)c1OC.Cl.Cl | 1.16
C[C@H](N)[C@H](O)c1ccc(O)c(O)c1 | 0.805
CC(=O)Nc1ccc(CCN)cc1 | 0.895
CC1=CC(=O)c2c(O)cccc2C1=O | 0.728
N[C@@H](Cc1ccc(N(CCCl)CCCl)cc1)C(=O)O | 0.982
NC(=O)c1ccc(N)nc1 | 1.04
C[C@]12CCC(=O)C=C1CC[C@@H]1C2C(=O)C[C@]2(C)C(=O)CCC12 (stereo partly specified) | 1.18
C[N+]1([O-])C2CCC1CC(OC(=O)C(CO)c1ccccc1)C2 (stereo unspecified) | 0.889
COc1ccc(Cc2nccc3cc(OC)c(OC)cc23)cc1OC.Cl | 1.06
O=C1NC(=O)C(C2(O)C(=O)c3ccccc3C2=O)C(=O)N1 | 1.18
C[C@H]1O[C@H](O[C@H]2[C@H](O)[C@@H](O)[C@@H](O)[C@H](O)[C@@H]2O)[C@@H](N)C[C@@H]1NC(=N)C(=O)O.Cl | 0.662
Cl.NCCc1ccccc1 | 1.08
Cc1ccc(-c2nc3ccc(C)cn3c2CC(=O)N(C)C)cc1 | 1.33
N#CCCN1CCCC2(CCCC2)C1 | 0.948
Nc1nc(N)nc(NC2CC2)n1 | 1.2
CC(C)(C)C(O)(CCc1ccc(Cl)cc1)Cn1cncn1 (stereo unspecified) | 0.98
CCOP(=S)(OCC)SCSP(=S)(OCC)OCC | 1.02
CC(=O)O[C@H]1C[C@@H](OC(C)=O)C(C)(C)C2C[C@@H](OC(C)=O)[C@]3(C)C(CC[C@@]4(C)[C@H](c5ccoc5)C(=O)[C@H]5O[C@]543)[C@]21C (stereo partly specified) | 1.08
O=C(OC1CC2CCC(C1)[N+]21CCCC1)C(O)(c1ccccc1)c1ccccc1.[Cl-] (stereo unspecified) | 1.13
COc1cc2c3cc1Oc1c(OC)c(OC)cc4c1[C@@H](Cc1cccc(c1)Oc1ccc(c(O)c1)C[C@@H]3N(C)CC2)N(C)CC4.Cl.Cl | 0.998

SMILES | relative growth
CCCC(C)C1(CC)C(=O)N=C([S-])NC1=O.[Na+] (stereo unspecified) | 1.29
Cc1cc(O)ccc1Cl | 0.883
COc1ccc2cc(CCN)c(=O)[nH]c2c1 | 0.936
C#CC1(O)CCC2C3CCC4=CC(=O)CCC4(C)C3CCC21C (stereo unspecified) | 1.47
COC(=O)CC1=C(C(=O)OC)[C@]2(C(=O)Nc3ccccc32)C(C(=O)OC)C(=N)O1 (stereo partly specified) | 0.942
CO[C@@H]1C=C[C@@H]2[C@H]1N2CCO (stereo partly specified) | 1.09
[N-]=[N+]=NCc1ccccc1C[C@]1(C(=O)N2CCCCC2)N=C(c2ccc(OCCCO)cc2)O[C@H]1c1ccccc1N=[N+]=[N-] | 1.14
CCCCC[C@H]1C(=O)O[C@H](C)[C@H](NC(=O)c2cccc(NC=O)c2O)C(=O)O[C@@H](C)[C@@H]1OC(=O)CC(C)C [ANTIMYCIN A (A1 shown)] | 0.829
C[C@@H]([C@H](O)c1ccccc1)N(C)C | 0.923
C[C@@H]1CC[C@@]2(NC1)O[C@H]1C[C@H]3C4CC=C5C[C@@H](O)CC[C@]5(C)C4CC[C@]3(C)C1[C@@H]2C (stereo partly specified) | 1.07
CN1CCc2cc3c(cc2[C@H]1C1OC(=O)c2c1ccc1c2OCO1)OCO3 (stereo partly specified) | 1.12
CC(C)(O)C(Cl)(Cl)Cl | 1.1
CC(=O)Oc1ccc(/C=C/c2cc(OC(C)=O)cc(OC(C)=O)c2)cc1 | 1
Cl.c1cncc(C2CCCCN2)c1 (stereo unspecified) | 0.932
CCCCCCCCCCCCCCCC[n+]1ccccc1.[Cl-] | 0.248
Cc1noc(C)c1CN1CCNCC1 | 1.05
CCCCCCCCCc1ccc(O)cc1 | 1.18
CC[C@@]1(O)C(=O)OCc2c1cc1n(c2=O)Cc2cc3ccccc3nc2-1 | 0.993
